{"source": "patent US6800672B2", "about": "“Biodegradable compositions comprising poly(cycloaliphatic phosphoester) compounds, articles, and methods for using the same” (Guilford Pharmaceuticals, Inc., priority 1997, dated 2004)", "key": {"[1]": {"assay": "In vivo release of IL-2 from P(CHDM-HOP), serum IL-2 after subcutaneous injection", "design": "species or system Balb/c mice", "conditions": "bolus injection, same dose of IL-2", "experimental": "A sample of P(CHDM-HOP) was sterilized by γ-irradiation at 2.5 MRads and aseptically blended with IL-2 in the same manner as described above in Example 15. Six female Balb/c mice, 6-weeks of age, were injected subcutaneously with 50 mg of the IL-2 polymer paste sample containing 3.5×10^5 IU of IL-2. Two additional mice received the same dose of IL-2 as a bolus injection, and two additional mice received blank P(CHDM-HOP) injection as a control.\nAt various time points, 50 μL of blood samples were collected from the tail vein. Blood samples from each group were combined and diluted with HBSS supplemented with 1% BSA. The serum was separated and assayed for IL-2 as described above. Sustained release of IL-2 was attained in vivo, with detectable levels of IL-2 present in the serum, for up to three weeks after injection of the P(CHDM-HOP)/IL-2-loaded paste. In contrast, the IL-2 levels were undetectable after 48 hours in the mice injected with the IL-2 bolus. FIG. 13 graphically compares the pharmacokinetics of IL-2 administered either as a bolus or dispersed in a P(CHDM-HOP) matrix. FIG. 14 depicts the histological examination of a subcutaneous injection site from this in vivo experiment."}, "[2]": {"system": "melanoma cell line B16/F10 tumors", "conditions": "treatment injected Day 3 (3d)"}}}
{"substance": "Bolus IL-2: interleukin-2 (Chiron) dissolved in isotonic solution, bolus injection", "values": [{"measurement": "time after which IL-2 levels were undetectable", "setting": "[1]", "result": 48, "unit": "h"}, {"measurement": "Tumor Volume After Tumor Injection, 28 days", "setting": "[2]", "result": "1946 ± 505.6", "unit": "mm^3"}, {"measurement": "Tumor Volume After Tumor Injection, 42 days", "setting": "[2]", "result": "3282 ± 1403.3", "unit": "mm^3"}]}
